This is a selection; strong and weak results do not stand in their true shares. The source made the active and inactive calls.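 How the source made its calls: active means inhibition of the ligand-induced calcium signal above about 50% at the single tested concentration (limit read from the data); inactive means the rest.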
Assay: antagonists of CRF-BP/CRF-R2 complex, primary screen, cell-based, HEK293, calcium dye fluorescence, uHTS (AID 588475)
Conditions: CRF-induced calcium fluorescence, at 11.8 µM, stronger effect = higher value

SMILES	inhibition
CSc1ccc(C(=O)NCC2(N3CCOCC3)CCCCC2)cc1	inactive: -7.58%
O=C(NCC1(N2CCCCC2)CCCCC1)c1cccc([N+](=O)[O-])c1	inactive: 5.82%
CCN1CCC(Nc2ccc(Cl)cc2)CC1	inactive: 3.5%
N#CC1(Nc2ccccc2)CCN(CCc2ccccc2)CC1	inactive: -57%
O=C(NCC1(N2CCCCC2)CCCCC1)c1ccc(OC(F)F)cc1	inactive: -5.17%
COc1ccc(NC2CCN(C(=O)OC(C)(C)C)CC2)cc1	inactive: 6.9%
CC(C)c1ccc(C(=O)NCC2(N3CCOCC3)CCCCC2)cc1	inactive: -1.94%
CN1CCN(CCOC(=O)C(O)(c2ccccc2)c2ccccc2)CC1	inactive: 1.15%
O=C(NCC1(N2CCOCC2)CCCCC1)c1cc(=O)[nH]c2ccccc12	inactive: 16.9%
COc1cc(C(=O)NCC2(N3CCCCC3)CCCCC2)ccc1OC(F)F	inactive: -2.55%
O=C(NCC1(N2CCCCC2)CCCCC1)c1cccc(C(F)(F)F)c1	inactive: -18.3%
COc1cc(OC)c(C(=O)NCC2(N(C)C)CCCCC2)cc1OC	inactive: 0.07%
O=C(NCC1(N2CCOCC2)CCCCC1)c1cc(F)c(F)cc1Cl	inactive: 4.59%
COc1ccc(CN(CCCl)CCCl)cc1Cl	inactive: 37.8%
CN(C)c1cccc(C(=O)NCC2(N3CCCCC3)CCCCC2)c1	inactive: 2.06%
CC(C)c1ccc(NC2CCN(C(=O)OC(C)(C)C)CC2)cc1	inactive: -9.72%
Cc1ccc(C(=O)NCC2(N(C)C)CCCCC2)o1	inactive: 2.72%
CCCOc1ccc(C(=O)NCC2(N(C)C)CCCCC2)cc1OC	inactive: 17%
O=C(NCC1(N2CCCCC2)CCCCC1)c1cncc(Br)c1	inactive: -1.63%
CN1CCC(Nc2cccc(F)c2)CC1	inactive: -15%
CSc1ccccc1C(=O)NCC1(N2CCCCC2)CCCCC1	inactive: 9.99%
Cc1cccc(NC2(C#N)CCN(Cc3ccccc3)CC2)c1	inactive: -0.07%
O=C(NCC1(N2CCCCC2)CCCCC1)c1ccc(=O)[nH]c1	inactive: 11.2%
O=C(NCC1(N2CCCCC2)CCCCC1)c1cccs1	inactive: -2.99%
COc1ccc(C(=O)NCC2(N3CCCCC3)CCCCC2)cc1	inactive: 5.46%
COc1ccc(C(=O)NCC2(N3CCCCC3)CCCCC2)c(OC)c1OC	inactive: -14.6%

SMILES	inhibition
CC(C)(C)OC(=O)N1CCC(N(C(=O)c2ccccc2)c2ccc(F)cc2)CC1	inactive: -5.67%
CCOC(=O)N1CCC(Nc2ccc(OC)cc2)CC1	inactive: -1.47%
O=C(OC1CN2CCC1CC2)C1c2ccccc2Oc2ccccc21 (stereo unspecified)	inactive: -24.4%
N#CC1(Nc2ccccc2)CCN(Cc2ccccc2)CC1	inactive: -3.06%
O=C(NCC1(N2CCCCC2)CCCCC1)c1ccc(Cl)s1	inactive: 1.69%
COc1ccc(Cl)cc1C(=O)NCC1(N2CCOCC2)CCCCC1	inactive: -17.7%
O=C(NCC1(N2CCOCC2)CCCCC1)c1cc2ccccc2o1	inactive: -7.66%
O=C(NCC1(N2CCCCC2)CCCCC1)c1ccc(Cl)nc1	inactive: 18.7%
Cc1cc(C)cc(N(C(=O)c2ccccc2)C2CCN(C(=O)OC(C)(C)C)CC2)c1	inactive: 2.11%
O=C(NCC1(N2CCCCC2)CCCCC1)c1ccc(F)cc1	inactive: -2.45%
CCCCOc1ccc(C(=O)NCC2(N3CCOCC3)CCCCC2)cc1	inactive: -3.34%
O=P1(N(CCCl)CCCl)SCCCS1	inactive: 19%
CCOC(=O)N1CCC(Nc2ccc(F)cc2)CC1	inactive: -2.92%
COc1ccc(NC2CCN(CCc3ccccc3)CC2)c(OC)c1	inactive: 16.5%
CCOc1ccc(C)cc1CN(CCCl)CCCl	inactive: 20.6%
O=C1CCN(Cc2ccccc2)CC1	inactive: -9.28%
COc1cc(C(=O)NCC2(N(C)C)CCCCC2)ccc1OC(F)F	inactive: 6.27%
CCOC(=O)N1CCC(Nc2cccc(C)c2)CC1	inactive: 2.59%
Cc1ccc(NC2(C#N)CCN(Cc3ccccc3)CC2)cc1	inactive: -9.12%
Cc1ccc(C(=O)NCC2(N3CCCCC3)CCCCC2)o1	inactive: 11.5%
Fc1ccccc1NC1CCN(Cc2ccccc2)CC1	inactive: 19.3%
COc1cc(OC)cc(C(=O)NCC2(N3CCCCC3)CCCCC2)c1	inactive: -0.86%
CC(=O)N(c1ccccc1)C1CCNCC1	inactive: 8.83%
O=C(NCC1(N2CCCCC2)CCCCC1)c1ccco1	inactive: 2.78%
Cn1c(=O)[nH]cc(N(CCCl)CCCl)c1=O	inactive: 27.3%
CN(C)c1ccc(C(=O)NCC2(N3CCCCC3)CCCCC2)cc1	inactive: -7.21%

SMILES	inhibition
Cc1ccccc1NC1(C#N)CCN(Cc2ccccc2)CC1	inactive: 12.6%
CCN1CCC(Nc2cccc(F)c2)CC1	inactive: 2.96%
CCCOc1ccc(C(=O)NCC2(N(C)C)CCCCC2)cc1	inactive: 3.09%
CC(C)(C)OC(=O)N1CCC(Nc2ccccc2)CC1	inactive: -1.5%
O=C(O)C1(Nc2ccccc2)CCN(Cc2ccccc2)CC1	inactive: 4.46%
CCOc1ncccc1C(=O)NCC1(N2CCOCC2)CCCCC1	inactive: -3.55%
CN1CCC(Nc2ccc(F)c(Cl)c2)CC1	inactive: 16.2%
CN1CCC(Nc2ccc(Cl)cc2)CC1	inactive: -10.3%
CCC(CO)(C(=O)OC1CN2CCC1CC2)c1ccccc1 (stereo unspecified)	inactive: -4.15%
COc1cccc(C(=O)N(c2cc(C)cc(C)c2)C2CCN(C(=O)OC(C)(C)C)CC2)c1	inactive: 22.4%
COc1cc(OC)cc(C(=O)NCC2(N3CCOCC3)CCCCC2)c1	inactive: 4.97%
COc1ccc(C(=O)NCC2(N3CCOCC3)CCCCC2)cc1OC	inactive: 3.48%
O=C(NCC1(N2CCOCC2)CCCCC1)c1cc(Br)ccc1Cl	inactive: -0.31%
COc1cc(C(=O)NCC2(N3CCOCC3)CCCCC2)cc(OC)c1C	inactive: 0.46%
O=C(OC1CN2CCC1CC2)C1c2ccccc2C=Cc2ccccc21 (stereo unspecified)	inactive: -16%
CCc1cc(C(=O)NCC2(N3CCCCC3)CCCCC2)sc1C	inactive: 12.9%
N/C(=N\O)c1c(N)no[n+]1[O-]	inactive: -7.55%
CCOC(=O)N1CCC(Nc2ccc(C)cc2)CC1	inactive: 16.1%
CC(C)(C)OC(=O)N1CCC(N(C(=O)c2ccccc2)c2ccc(Cl)cc2)CC1	inactive: 6.35%
N#Cc1ccc(C(=O)NCC2(N3CCCCC3)CCCCC2)cc1	inactive: -4.84%
c1ccc(CN2CCC(Nc3ccccc3)CC2)cc1	inactive: -10.3%
CCCN1CCC(Nc2cc(OC)cc(OC)c2)CC1	inactive: 5.48%
Cc1cc(N(CCCl)CCCl)ccc1C=O	active: 62.1%
CN(C)C1(CNC(=O)c2cccc(C#N)c2)CCCCC1	inactive: 4.92%

From PubChem BioAssay AID588475 (Sanford-Burnham Center for Chemical Genomics, 2011)
